scFv variants of Ab-14 (heavy chain) against a SARS-CoV-2 spike peptide

From the AlphaSeq antibody data of Engelhart et al. 2022 (doi:10.1038/s41597-022-01779-4), copy in the FLAb collection.

Target peptide (SARS-CoV-2 spike, HR2 region): PDVDLGDISGINAS

The variants keep the light chain, the linker and the frameworks of Ab-14 (scFv order VH, the linker GGGGSGGGGSGGGGS, VL).
VH: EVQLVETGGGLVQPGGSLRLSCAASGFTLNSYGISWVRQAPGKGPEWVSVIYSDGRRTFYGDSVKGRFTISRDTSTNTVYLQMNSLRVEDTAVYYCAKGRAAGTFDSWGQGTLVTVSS
VL: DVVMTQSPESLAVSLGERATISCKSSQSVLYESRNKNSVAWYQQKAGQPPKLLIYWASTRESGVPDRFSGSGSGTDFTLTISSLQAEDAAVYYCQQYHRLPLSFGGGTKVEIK

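Phage display of a naive human antibody library on the peptide gave the parent. Variants in AAYL49 differ from the parent at up to three CDR positions; double and triple changes were sampled at random. AlphaSeq pools MATa yeast showing the antibodies with MATalpha yeast showing the peptide. Binding brings cells together so that they mate, and sequencing counts the barcode pairs among the diploids. Scores were corrected for input abundance and mapped to Kd with protein pairs of known affinity run in the same pool. Mating was done three times.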

Positions count from residue 1 of the parent VH; Y60T puts T in place of Y. Numbers give log10(Kd / nM), so 0 is 1 nM and 3 is 1 µM. Smaller is tighter. A mean of the replicates is given; it leaves out those without a signal. "nd" means that the variant was in the library but no mating with the target was seen in that replicate; the authors take this as a sign of poor binding, and no number exists. Parent in this assay: reference entry 0.65, copy in this library 4.11 (one replicate of three). As a blank, each scFv also met three strains without target: over library AAYL49, 15% of these pairings were detected, typically at 4.06 and seldom below 2.83. Also given: how often the same scFv was detected with the empty control strains, with their mean in brackets.

changes	log10 Kd, replicates	log10 Kd (nM), mean	empty controls
Y60T S107H	nd / nd / nd	nd	4 of 9 (3.31)
R56N T58F T104W	nd / nd / nd	nd	1 of 9 (2.70)
G26I S35M D106G	nd / nd / 5.65	5.65	2 of 9 (4.15)
D62N R100D F105K	nd / nd / nd	nd	0 of 9
Y32G R100S F105M	nd / nd / nd	nd	0 of 9
R57V S63E	nd / 3.98 / nd	3.98	3 of 9 (5.09)
R56Y K65V F105I	3.80 / nd / nd	3.80	0 of 9
F27R Y32W D54L	3.37 / nd / 3.24	3.31	3 of 9 (3.65)
V64C F105M S107N	2.96 / 1.83 / 1.85	2.21	2 of 9 (4.36)
S35W V50W G99K	6.47 / nd / nd	6.47	3 of 9 (4.02)
V50I T58K S63H	2.79 / 3.46 / 3.43	3.22	3 of 9 (3.92)
G55Y S107K	nd / nd / nd	nd	0 of 9
T28W G33I V64K	nd / nd / 1.87	1.87	0 of 9
L29V D62K S107C	nd / nd / nd	nd	0 of 9
V64R T104K	4.29 / 3.62 / 5.67	4.53	4 of 9 (4.05)
Y32N I34K S63A	nd / 4.52 / nd	4.52	5 of 9 (3.96)
V50Q Y60M	nd / 3.94 / 3.93	3.94	2 of 9 (3.50)
N30V S53Q R56T	nd / nd / nd	nd	0 of 9
Y60T K65Y	5.99 / nd / nd	5.99	1 of 9 (3.88)
F27H G55R	5.75 / 3.58 / nd	4.67	3 of 9 (4.58)
N30W G33Q G61K	nd / nd / nd	nd	1 of 9 (3.73)
T28P N30Q S35D	nd / nd / nd	nd	0 of 9
L29V G55D F105A	nd / nd / nd	nd	0 of 9
I51G R56E D62Y	nd / 3.75 / nd	3.75	3 of 9 (4.18)
L29Y A102E T104P	nd / nd / nd	nd	1 of 9 (2.47)
F27K G61E S63F	nd / nd / nd	nd	0 of 9
Y52L T58S	nd / nd / nd	nd	3 of 9 (3.83)
G26Y I34T V64S	5.39 / 4.63 / 5.68	5.23	0 of 9
V50P G61R A101Q	4.19 / 5.01 / nd	4.60	2 of 9 (4.41)
Y32S Y60L S107V	nd / nd / 4.53	4.53	2 of 9 (4.63)
N30L I34Y F59H	3.78 / 4.34 / 4.07	4.07	2 of 9 (4.65)
G33I I51W G103V	4.50 / 3.75 / nd	4.12	2 of 9 (4.22)
S35A Y52G G103R	6.22 / nd / nd	6.22	2 of 9 (3.72)
I34H V50A I51A	nd / nd / nd	nd	0 of 9
Y32T S53A R57P	nd / nd / nd	nd	0 of 9
F59K G61Q F105S	2.23 / 2.62 / 2.07	2.31	0 of 9
G26C Y32Q R56H	nd / nd / 3.20	3.20	3 of 9 (4.26)

The last 6 entries again:

changes	log10 Kd, replicates	log10 Kd (nM), mean	empty controls
G33I I51W G103V	4.50 / 3.75 / nd	4.12	2 of 9 (4.22)
S35A Y52G G103R	6.22 / nd / nd	6.22	2 of 9 (3.72)
I34H V50A I51A	nd / nd / nd	nd	0 of 9
Y32T S53A R57P	nd / nd / nd	nd	0 of 9
F59K G61Q F105S	2.23 / 2.62 / 2.07	2.31	0 of 9
G26C Y32Q R56H	nd / nd / 3.20	3.20	3 of 9 (4.26)